Measurements: PubChem BioAssay
The entries are a selection whose mix differs from that of the whole data set. Calls of active or inactive are those of the source. Unless noted, no stated cut-off is given here; in the data, active means activation above about 22%; inactive means the rest.

Protein sequences, listed by entry. Tags and fused reporters are not part of them. Lines headed by an entry give the natural chain unless they say otherwise; changes in a name come on top.
UniProt P37231: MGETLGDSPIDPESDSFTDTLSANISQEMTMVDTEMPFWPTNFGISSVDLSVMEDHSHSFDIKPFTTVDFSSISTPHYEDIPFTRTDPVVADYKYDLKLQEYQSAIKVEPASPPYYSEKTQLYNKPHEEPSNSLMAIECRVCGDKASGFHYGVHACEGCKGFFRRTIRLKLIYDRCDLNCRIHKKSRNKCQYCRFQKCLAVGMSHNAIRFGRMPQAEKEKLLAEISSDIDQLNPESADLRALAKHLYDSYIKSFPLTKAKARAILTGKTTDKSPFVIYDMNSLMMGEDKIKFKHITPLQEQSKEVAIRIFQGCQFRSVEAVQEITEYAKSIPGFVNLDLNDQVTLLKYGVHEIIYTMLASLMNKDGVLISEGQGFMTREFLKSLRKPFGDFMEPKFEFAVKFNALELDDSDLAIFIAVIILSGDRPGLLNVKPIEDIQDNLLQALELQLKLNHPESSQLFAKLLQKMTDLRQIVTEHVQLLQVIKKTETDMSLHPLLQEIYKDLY
UniProt Q9Y6Q9, whole entry, looked up: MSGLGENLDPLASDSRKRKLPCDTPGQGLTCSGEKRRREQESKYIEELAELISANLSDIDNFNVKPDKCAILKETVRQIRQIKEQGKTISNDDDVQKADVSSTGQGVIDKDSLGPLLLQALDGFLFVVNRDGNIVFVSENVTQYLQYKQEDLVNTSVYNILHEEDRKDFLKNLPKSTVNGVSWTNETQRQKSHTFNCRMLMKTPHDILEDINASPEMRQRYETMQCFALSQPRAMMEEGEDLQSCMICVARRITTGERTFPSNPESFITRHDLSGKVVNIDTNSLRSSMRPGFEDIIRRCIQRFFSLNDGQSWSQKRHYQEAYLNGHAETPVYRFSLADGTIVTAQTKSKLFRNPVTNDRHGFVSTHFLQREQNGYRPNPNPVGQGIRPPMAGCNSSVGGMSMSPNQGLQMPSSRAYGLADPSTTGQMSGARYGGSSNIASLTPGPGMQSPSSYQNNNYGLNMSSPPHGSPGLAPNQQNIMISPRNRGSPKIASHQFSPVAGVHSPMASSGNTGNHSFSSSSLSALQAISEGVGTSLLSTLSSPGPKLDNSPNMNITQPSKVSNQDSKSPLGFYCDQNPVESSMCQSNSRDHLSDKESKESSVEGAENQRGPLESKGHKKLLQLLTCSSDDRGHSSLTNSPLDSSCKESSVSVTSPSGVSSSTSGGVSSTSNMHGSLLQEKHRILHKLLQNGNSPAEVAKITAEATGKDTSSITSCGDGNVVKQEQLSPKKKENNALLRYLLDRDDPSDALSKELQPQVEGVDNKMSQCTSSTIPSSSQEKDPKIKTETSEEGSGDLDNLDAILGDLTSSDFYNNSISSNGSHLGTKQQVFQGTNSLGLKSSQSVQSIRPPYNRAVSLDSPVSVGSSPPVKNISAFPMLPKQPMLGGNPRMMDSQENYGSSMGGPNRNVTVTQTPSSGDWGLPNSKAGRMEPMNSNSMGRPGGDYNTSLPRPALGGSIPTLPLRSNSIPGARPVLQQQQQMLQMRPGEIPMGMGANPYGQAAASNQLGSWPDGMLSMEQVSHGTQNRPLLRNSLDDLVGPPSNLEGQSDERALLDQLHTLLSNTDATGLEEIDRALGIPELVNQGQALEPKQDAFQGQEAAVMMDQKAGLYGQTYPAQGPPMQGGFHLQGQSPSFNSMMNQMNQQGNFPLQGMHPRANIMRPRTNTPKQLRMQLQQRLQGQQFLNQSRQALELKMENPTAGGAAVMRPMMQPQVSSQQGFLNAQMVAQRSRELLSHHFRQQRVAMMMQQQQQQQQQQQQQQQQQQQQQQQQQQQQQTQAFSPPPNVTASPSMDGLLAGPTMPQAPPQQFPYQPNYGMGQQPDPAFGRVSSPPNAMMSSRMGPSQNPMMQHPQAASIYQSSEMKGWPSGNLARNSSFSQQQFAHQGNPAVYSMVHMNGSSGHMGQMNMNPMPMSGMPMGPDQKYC

Tests used:
[1] = target: Peroxisome proliferator-activated receptor gamma (Homo sapiens) (UniProt P37231); assay: agonists of PPARgamma SRC-2 coactivator recruitment, confirmation, biochemical, HTS (AID 1297); conditions: biochemical SRC-2 recruitment by PPARgamma; at 8 µM; stronger effect = higher value;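 further: 0% = vehicle alone and 100% = reference agonist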
[2] = target: Peroxisome proliferator-activated receptor gamma (Homo sapiens) (UniProt P37231); assay: PPARgamma agonists recruiting SRC-1 coactivator, confirmation, biochemical (AID 1300; in the data active means activation above about 20%;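 further: 0% = vehicle wells and 100% = reference agonist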); conditions: PPARgamma–SRC-1 coactivator recruitment biochemical assay; at 8 µM; stronger effect = higher value
[3] = target: Peroxisome proliferator-activated receptor gamma (Homo sapiens) + Nuclear receptor coactivator 3 (Homo sapiens) (UniProt P37231+Q9Y6Q9); assay: PPARgamma-driven SRC-3 coactivator recruitment agonists, confirmation, biochemical (AID 1301; in the data active means activation above about 24%;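 further: 0% = vehicle wells and 100% = reference agonist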); conditions: biochemical PPARgamma-SRC-3 coactivator recruitment, agonist mode; at 8 µM; stronger effect = higher value

Measured: activation

CN(C)c1ccc2nc3ccc(=[N+](C)C)cc-3sc2c1
active: [1] 233% | [2] 172% | [3] 167%
